What all share (conditions): unit assumed
Experiment [1] concerns E. coli Ec13. The experiment in a line: BMD susceptibility test. The experiment is classed as cell-based, Escherichia coli.
The subject of experiment [2] is E. coli Ec13. The experiment in a line: FaAST (FDAA metabolic labeling). The experiment is classed as cell-based, Escherichia coli. The protocol: (§1) The specific experimental steps are as follows: • 1. Take the colony to be tested that has been cultured overnight on the plate and fully mix it in normal saline to make a uniform bacterial solution. Dilute it into CAMHB medium to make a bacterial solution with OD600=0.05. • 2. Add 45 μl antibiotic solutions to be tested of different concentrations to 96-well plates (see Table 3 for antibiotic concentration gradient settings). • 3. Add 50 μl of bacterial solution prepared in Step 1 to the 96-well plate and mix well. • 4.5 μl of 10 mM Cy5-DAA probe was added to each well (final concentration was 0.15 mM, and its structure was shown in FIG. 1). After mixing, the probe was incubated for 2 hours in the dark. • 5. After dilution with 200 μl PBS solution, the fluorescence intensity of each sample was detected by flow cytometry.

The test system of experiment [3] is K. pneumoniae Kp9. The experiment in a line: FaAST (FDAA metabolic labeling). The experiment is classed as cell-based, Klebsiella pneumoniae. The protocol:
as §1

Experiment [4] has as its system K. pneumoniae Kp9. The experiment in a line: BMD susceptibility test. The experiment is classed as cell-based, Klebsiella pneumoniae.
Experiment [5] deals with E. faecium Ef28. The experiment in a line: BMD susceptibility test. The experiment is classed as cell-based, Enterococcus faecium.
The test system of a further experiment is E. faecium Ef26. The experiment in a line: BMD susceptibility test. Format: cell-based, Enterococcus faecium.
The subject of experiment [6] is E. faecium Ef28. The experiment in a line: FaAST (FDAA metabolic labeling method). Format: cell-based, Enterococcus faecium. The protocol: Take the colony to be tested that has been cultured overnight on the plate and fully mix it in normal saline to make a uniform bacterial solution. Dilute it into Cation-Adjusted Mueller Hinton Broth (CAMHB) culture medium to make a bacterial solution with OD600=0.05. • 2. Add 45 μl antibiotic solutions of different concentrations to 96-well plates (see Table 1 for antibiotic concentration gradient settings). • 3. Add 50 μl of the bacterial solution prepared in step 1 to the 96-well plate and mix well. • 4. Add 5 μl of 10 mM Cy5-DAA probe (final concentration 0.15 mM, see FIG. 1 for its structure) into each well, mix well, and cultivate in dark for 2 hours. • 5. Add 200 μl After PBS solution is diluted, the fluorescence intensity of each sample is detected by flow cytometry. […] The MIC (minimum inhibitory concentration) can be obtained by referring to this curve.

With `CO/N=C(\C(=O)N[C@@H]1C(=O)N2C(C(=O)O)=C(COC(N)=O)CS[C@H]12)c1ccco1` [Cefuroxime], the BMD (MIC) in the experiment with E. coli Ec13 [1] and with K. pneumoniae Kp9 [4] was over 256 µg/mL each time. Moreover, the FaAST (MIC) in the experiment with E. coli Ec13 [2] and with K. pneumoniae Kp9 [3] was over 256 µg/mL throughout.

As for `C[C@H]1COc2c(N3CCN(C)CC3)c(F)cc3c(=O)c(C(=O)O)cn1c23` [Levofloxacin, levofloxacin], the BMD (MIC) in the experiment on E. faecium Ef28 [5] and with E. faecium Ef26 was over 256 µg/mL in each case.

For `CC1(C)S[C@@H]2[C@H](NC(=O)Cc3ccccc3)C(=O)N2[C@H]1C(=O)O` [Penicillin G, penicillin G], the BMD (MIC) in the experiment with E. faecium Ef28 [5] is over 256 µg/mL. In the experiment on E. faecium Ef28 [6], this molecule had a FaAST (MIC) of 256 µg/mL.

For the origin of these results see US20240240224A1, “FLUORESCENT D-TYPE AMINO ACID METABOLISM MARKER-BASED METHOD FOR DETECTING ANTIBACTERIAL DRUG SENSITIVITY TEST” (priority 2020, published 2024).
